Protein sequences, listed by entry. Tags and fused reporters are not part of them. Lines headed by an entry give the natural chain unless they say otherwise; changes in a name come on top.
UniProt P41145: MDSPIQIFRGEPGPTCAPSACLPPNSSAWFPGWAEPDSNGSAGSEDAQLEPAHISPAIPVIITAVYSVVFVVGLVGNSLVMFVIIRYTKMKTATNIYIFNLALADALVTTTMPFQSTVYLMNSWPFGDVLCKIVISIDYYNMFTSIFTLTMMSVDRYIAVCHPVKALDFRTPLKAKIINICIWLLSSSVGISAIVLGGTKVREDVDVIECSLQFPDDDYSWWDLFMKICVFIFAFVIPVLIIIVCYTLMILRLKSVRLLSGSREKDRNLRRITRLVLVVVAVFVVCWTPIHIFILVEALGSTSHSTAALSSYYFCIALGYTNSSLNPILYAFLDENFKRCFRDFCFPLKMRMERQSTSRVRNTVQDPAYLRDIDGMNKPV
UniProt P35372, whole entry, looked up: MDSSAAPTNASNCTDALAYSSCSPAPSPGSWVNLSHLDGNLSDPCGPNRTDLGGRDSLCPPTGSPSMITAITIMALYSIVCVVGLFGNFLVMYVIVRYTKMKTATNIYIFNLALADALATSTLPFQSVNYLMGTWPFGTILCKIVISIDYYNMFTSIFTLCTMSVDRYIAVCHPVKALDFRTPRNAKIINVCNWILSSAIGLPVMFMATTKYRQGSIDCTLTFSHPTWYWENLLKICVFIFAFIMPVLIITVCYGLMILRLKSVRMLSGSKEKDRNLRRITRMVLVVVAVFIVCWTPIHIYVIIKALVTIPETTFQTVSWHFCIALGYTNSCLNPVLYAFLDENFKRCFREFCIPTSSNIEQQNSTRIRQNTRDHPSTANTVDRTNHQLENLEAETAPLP

In patent US7358243B2, “Diazabicyclonane and-decane derivatives and their use as opioid receptor ligands” (dated 2008):

Experiments:
[1] = biological target: human recombinant opiate δ receptor (Homo sapiens, UniProt P41143); test: Binding assay, human recombinant opiate δ receptor
[2] = biological target: human recombinant opiate κ receptor (Homo sapiens, UniProt P41145); test: Binding assay, human recombinant opiate κ receptor
[3] = biological target: human recombinant opiate μ receptor (Homo sapiens, UniProt P35372); test: Binding assay, human recombinant opiate μ receptor; details: for Ki: read-out: μ Ki
guinea pig ileum = test: Functional activity in guinea pig ileum

Row | Structure (SMILES) | δ inhib at 10 μM [1] | κ inhib at 10 μM [2] | Ki [3] | functional activity (agonist character) (guinea pig ileum) | EC50 (guinea pig ileum; read-out: EC50 functional activity) | μ inhib at 100 nM ([3]; 100 nM)
1 | CCC(=O)N1C2CCC3CCN(C/C=C/c4ccccc4)CC321 (racemic) | 34% inhib at 10 μM | 22% inhib at 10 μM | 0.022 µM | – | – | –
2 | CCC(=O)N1CCC2CCC(C1)N2CC=Cc1ccccc1 (racemic) | 51% inhib at 10 μM | 78% inhib at 10 μM | 0.02 µM | – | – | –
3 | CCC(=O)N1CCC2CCCC(C1)N2CC=Cc1ccccc1 (racemic) | 35% inhib at 10 μM | 74% inhib at 10 μM | – | full agonist | 0.068 µM | 63% inhib at
